In PubChem BioAssay AID540279 (National Center for Advancing Translational Sciences (NCATS), 2011):
Only a part is listed here, and it is no random draw. Records with an inconclusive call do not appear. Active and inactive are the calls of the source. The call rests on the fitted dose curve; in most records, active means well fitted inhibition curve with a large enough effect; inconclusive means small, poorly fitted or top-dose-only effect; inactive means flat fitted curve, though single readings scatter.

Chains of the proteins cited; added tags and fusions are not shown. Lines headed by an entry give the natural chain unless they say otherwise; changes in a name come on top.
UniProt Q9Y468: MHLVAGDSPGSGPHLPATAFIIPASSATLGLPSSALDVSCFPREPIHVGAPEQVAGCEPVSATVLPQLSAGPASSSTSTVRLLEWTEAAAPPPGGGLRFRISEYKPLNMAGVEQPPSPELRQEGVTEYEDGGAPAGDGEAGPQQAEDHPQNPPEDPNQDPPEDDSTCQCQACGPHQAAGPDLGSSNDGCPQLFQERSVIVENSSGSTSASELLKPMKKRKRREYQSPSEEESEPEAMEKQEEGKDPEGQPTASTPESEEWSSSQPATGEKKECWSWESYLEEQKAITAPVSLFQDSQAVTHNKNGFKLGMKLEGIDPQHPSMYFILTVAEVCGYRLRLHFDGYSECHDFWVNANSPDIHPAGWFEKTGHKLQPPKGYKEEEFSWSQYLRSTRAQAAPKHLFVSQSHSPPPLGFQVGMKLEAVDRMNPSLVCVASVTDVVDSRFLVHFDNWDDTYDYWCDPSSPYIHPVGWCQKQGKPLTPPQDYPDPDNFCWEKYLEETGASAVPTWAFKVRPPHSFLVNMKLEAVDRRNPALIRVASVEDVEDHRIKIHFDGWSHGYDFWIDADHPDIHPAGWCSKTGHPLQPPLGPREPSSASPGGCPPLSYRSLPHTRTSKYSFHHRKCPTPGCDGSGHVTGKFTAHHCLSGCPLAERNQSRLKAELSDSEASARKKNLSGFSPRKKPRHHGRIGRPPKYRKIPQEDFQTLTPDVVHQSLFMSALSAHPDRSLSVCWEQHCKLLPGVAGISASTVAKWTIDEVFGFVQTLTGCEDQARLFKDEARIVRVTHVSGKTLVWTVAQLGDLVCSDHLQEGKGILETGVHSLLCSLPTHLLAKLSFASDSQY

Molecular target: Lethal(3)malignant brain tumor-like protein 1 (Homo sapiens) (UniProt Q9Y468)
Assay: qHTS Assay for the Inhibitors of L3MBTL1: Hit Validation; further: nearly all actives have a fitted effect of over 70% in size
Details: L3MBTL1 methyl-lysine binding inhibition, biochemical qHTS
From the text: The histone code is comprised of many post-translational modifications that occur mainly in histone tail peptides. The identity and location of these marks are read by a variety of histone binding proteins that are emerging as important regulators of cellular differentiation and development and are increasingly being implicated in numerous disease states. Small molecule probes that disrupt the interaction between histone binding proteins and chromatin would enable a systematic chemical biology study of proteins that read the histone code and could potentially reveal new targets for drug discovery. However, no such small molecules are known. This dearth of quality molecular probes can largely be attributed to the novelty of the target class and the lack of screening assays. This proposal details the development of the first high-throughput screening assay for the discovery of inhibitors of methyl-lysine binding proteins and how it can be used to initiate a full-scale discovery effort for antagonists of histone binding proteins. […]
To each well, 2 uL of L3MBTL1 protein (final 50 nM) and 1 uL biotinylated histone peptide monomethylated at Lys9 [b-AHA-H3(1-15)K9me1] […] Microplates were then be read on an EnVision multilabel plate reader using the 1,536 plate HTS AlphaScreen aperture (excitation time 80 ms, measurement time 240 ms).
Potency means the concentration at half of the fitted maximal effect.

In the case of `CCc1nc2c(n1)c1c(non1O)c1c2no[n+]1[O-]`, the Potency is reported as active: 6.7 µM.
